From PubChem BioAssay AID750 (Sanford-Burnham Center for Chemical Genomics, 2007) come the findings set out here.

The entries are a selection whose mix differs from that of the whole data set. Activity calls are given as the source filed them.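 How the source made its calls: active means activation factor of at least 2 for MT1-MMP transcription at 10 µM; inactive means the rest.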

The nature of the assay: MT1-MMP promoter reporter activation – cell-based, luciferase luminescence, primary screen (AID 750). To be noted: HT1080 MT1-MMP promoter luciferase reporter, overnight, at 10 µM, active compounds read high.
For `COc1ccc(OP(C)(=O)Nc2ccccn2)cc1` (configuration not stated), the activation factor is inactive: 1.
The figure for `CN(C)CCOC(=O)C(O)(c1ccccc1)C1CCCC1` (configuration not stated) is inactive: 1.1.
The figure for `CP(=O)(Nc1ccccn1)Oc1ccccc1` (configuration not stated) is inactive: 1.1; for `COc1ccccc1OP(C)(=O)Nc1ccc(C)cc1C` (configuration not stated) it is inactive: 1.1.
In the case of `CCc1ccc(OP(C)(=O)O)cc1` it was inactive: 1; in that of `Cc1c(NP(C)(=O)Oc2ccc(C(C)C)cc2)c(=O)n(-c2ccccc2)n1C` (configuration not stated), inactive: 1.1; in that of `COc1ccccc1OP(C)(=O)Nc1ccc(C)c(C)c1` (configuration not stated), inactive: 1.2.
`Cc1nc2ccc3ccccc3c2o1.O=[N+]([O-])c1cc([N+](=O)[O-])c(O)c([N+](=O)[O-])c1`: the activation factor is inactive: 1.6.
The figure for `CP(=O)(OC12CC3CC(CC(C3)C1)C2)OC12CC3CC(CC(C3)C1)C2` is inactive: 1; for `COc1ccccc1OP(C)(=O)Nc1c(C)n(C)n(-c2ccccc2)c1=O` (configuration not stated) it is inactive: 1.1; for `CP(=O)(Oc1ccccc1)N1CCOC1=O` (configuration not stated) it is inactive: 1.1.
The figure for `CCN(CC)CC(O)COC(=O)C(O)(c1ccccc1)C1CCCCC1` (configuration not stated) is inactive: 1.2; for `CC(C)(C)c1ccc(OP(C)(=O)O)cc1` it is inactive: 1.3; for `CP(=O)(Nc1ccc(Cl)cc1)Oc1ccc(F)cc1` (configuration not stated) it is inactive: 1.
In the case of `CCOP(C)(=S)SCC(=O)NC(C)(CC)C(=O)O` (configuration not stated) it was inactive: 1.2.
As for `Cc1ccccc1NP(C)(=O)Nc1ccccc1C`, the activation factor was inactive: 1.2.
With `CP(=O)(Nc1ccc2c(c1)OCCO2)Oc1ccccc1` (configuration not stated), the activation factor is inactive: 1.2.
The figure for `CN(C)CCOC(=O)C(O)(c1ccccc1)C1CCCCC1` (configuration not stated) is inactive: 1; for `CP(=O)(Nc1ccccc1)Oc1ccc(F)cc1` (configuration not stated) it is inactive: 1.1.
In the case of `CCN(CC)CCCOC(=O)C(O)(c1ccccc1)C1CCCCC1` (configuration not stated) it was inactive: 1.2; in that of `CP(=O)(Nc1ccccc1F)Oc1ccccc1` (configuration not stated), inactive: 1; in that of `Cc1ccc(C)c(NP(C)(=O)Oc2ccccc2)c1` (configuration not stated), inactive: 1.2.
For the molecule `Cc1cc(C)cc(OP(C)(=O)Nc2ccccn2)c1` (configuration not stated), the activation factor was inactive: 1.1.
In the case of `COc1ccccc1OP(C)(=O)Nc1c(C)cccc1C` (configuration not stated) it was inactive: 1; in that of `Cc1nc2ccc3ccccc3c2s1.O=[N+]([O-])c1cc([N+](=O)[O-])c(O)c([N+](=O)[O-])c1`, inactive: 1.1.
In the case of `CP(=O)(NC(=O)Nc1ccccc1)Oc1ccccc1` (configuration not stated) it was inactive: 1.2; in that of `CP(=O)(Nc1ccccn1)Oc1ccc(Cl)cc1` (configuration not stated), inactive: 1.1; in that of `CCOP(C)(=S)SCC(=O)NC(C)C(=O)O` (configuration not stated), inactive: 1.2.
The figure for `CP(=S)(Nn1cnnc1)Oc1ccccc1` (configuration not stated) is inactive: 1.2; for `COc1ccc(OP(C)(=O)Nc2cccc(F)c2)cc1` (configuration not stated) it is inactive: 1.2; for `COc1ccccc1OP(C)(=O)Nc1ccc(C)cc1` (configuration not stated) it is inactive: 1.2.
Take `Cc1ccc(NP(C)(=O)Oc2ccccc2)c(C)c1` (configuration not stated): the activation factor was inactive: 1.2.
